Assay results as given in patent US20210061861A1, “D-PEPTIDIC COMPOUNDS FOR VEGF” (Reflexion Pharmaceuticals, Inc., priority 2019, published 2021).

Protein sequences, listed by entry. Tags and fused reporters are not part of them. Residues count along the entry.
UniProt P15692, 214-315: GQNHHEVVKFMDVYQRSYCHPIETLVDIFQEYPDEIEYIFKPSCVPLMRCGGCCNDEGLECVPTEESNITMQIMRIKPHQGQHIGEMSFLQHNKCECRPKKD

Target: VEGF-A (Homo sapiens, UniProt P15692)
Experiment: SPR binding of D-peptidic compounds to L-VEGF-A
Set-up: Biotinylated VEGF-A(8-109) was immobilized on a biotin CAPture chip
Details: Table 4, D-peptidic Z and GA domains

CC[C@@H](C)[C@@H](NC(=O)CNC(=O)[C@@H](C)NC(=O)[C@@H](CCCCN)NC(=O)[C@@H](CCCCN)NC(=O)[C@@H](CC(C)C)NC(=O)[C@@H](CCC(=O)O)NC(=O)[C@@H](C)NC(=O)[C@H](NC(=O)[C@@H](C)NC(=O)[C@@H](CC(=O)O)NC(=O)[C@@H](CCC(=O)O)NC(=O)[C@@H](CCCCN)NC(=O)[C@@H](C)NC(=O)[C@@H](CC(N)=O)NC(=O)[C@@H](CCCCN)NC(=O)[C@@H](CC(C)C)NC(=O)[C@@H](CC(C)C)NC(=O)[C@@H](Cc1c[nH]c2ccccc12)NC(=O)[C@@H](CCC(N)=O)NC(=O)[C@@H](CC(=O)O)NC(=O)[C@H](NC(=O)[C@H](N)[C@H](C)O)[C@H](C)CC)[C@H](C)CC)C(=O)N[C@@H](C(=O)N[C@H](CO)C(=O)N[C@H](CC(=O)O)C(=O)N[C@H](Cc1ccccc1)C(=O)N[C@H](Cc1ccc(O)cc1)C(=O)N[C@H](Cc1ccccc1)C(=O)N[C@H](CC(N)=O)C(=O)N[C@H](C)C(=O)N[C@@H](C(=O)N[C@H](CC(N)=O)C(=O)N[C@H](CCCCN)C(=O)N[C@H](C)C(=O)N[C@H](CCCCN)C(=O)N[C@@H](C(=O)N[C@@H](C(=O)N[C@H](CCC(=O)O)C(=O)N[C@H](CCC(=O)O)C(=O)N[C@@H](C(=O)N[C@H](CC(N)=O)C(=O)N[C@H](C)C(=O)N[C@H](CC(C)C)C(=O)N[C@H](CCCCN)C(=O)N[C@H](CC(N)=O)C(=O)N[C@H](CCC(=O)O)C(=O)N[C@@H](C(=O)N[C@H](CC(C)C)C(=O)N[C@H](CCCCN)C(=O)N[C@H](C)C(=O)N[C@H](Cc1c[nH]cn1)C(=O)N[C@H](C)C(=O)O)[C@H](C)CC)C(C)C)C(C)C)[C@H](C)O)[C@H](C)CC)[C@H](C)O [GAdomain wt, tidqwllknakedaiaelkkaGitsdfyfnainkaktveevnalkneilkaha, reference compound]
VEGF Binding Affinity (KD, nM): No
